Assay results from publication PMC11084632, “Pharmacological Evaluation of Cannabinoid Receptor Modulators Using GRABeCB2.0 Sensor” (International Journal of Molecular Sciences, 2024).
“Also recorded” adds a separate entry of the source.

Sequences of proteins named here, by UniProt entry; tags and fusion partners are left off.
UniProt P21554, whole entry S383T, looked up: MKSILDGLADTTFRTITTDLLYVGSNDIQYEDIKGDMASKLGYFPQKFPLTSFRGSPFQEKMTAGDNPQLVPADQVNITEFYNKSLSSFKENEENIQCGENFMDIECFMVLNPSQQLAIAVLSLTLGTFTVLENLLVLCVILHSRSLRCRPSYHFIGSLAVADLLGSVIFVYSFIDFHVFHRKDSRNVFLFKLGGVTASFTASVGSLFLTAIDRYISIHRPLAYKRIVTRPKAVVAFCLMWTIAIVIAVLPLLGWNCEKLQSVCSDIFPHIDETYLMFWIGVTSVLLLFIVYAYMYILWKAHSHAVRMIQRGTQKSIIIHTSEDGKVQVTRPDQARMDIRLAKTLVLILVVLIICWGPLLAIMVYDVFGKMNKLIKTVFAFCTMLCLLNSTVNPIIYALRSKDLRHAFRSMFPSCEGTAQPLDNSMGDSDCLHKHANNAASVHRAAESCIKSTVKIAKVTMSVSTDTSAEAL

Assays:
GRABeCB2.0 sensor [1] = biological target: T1, GRABeCB2.0 sensor (Homo sapiens, UniProt P21554, S383T, form not given)
GRABeCB2.0 sensor [2] = biological target: T1, GRABeCB2.0 sensor; remark: listed apart in the source
GRABeCB2.0 sensor [3] = biological target: T1, GRABeCB2.0 sensor; remark: listed apart in the source

O=C(Nc1ccc(Cl)cc1)Nc1cccc(-c2cccc(N3CCCC3)n2)c1 [PSNCBAM-1]
Effect on GRABeCB2.0 basal fluorescence (GRABeCB2.0 sensor [1]): weak inverse agonism at higher concentrations
Mode of antagonism in Schild-like analysis (GRABeCB2.0 sensor [2]): non-competitive antagonism; also recorded: did not significantly affect the EC50 value of CP55,940
Effect on 2-AG-activated GRABeCB2.0 fluorescence (GRABeCB2.0 sensor [3]): this behavior could be replicated
Effect on CP55940-activated GRABeCB2.0 fluorescence (GRABeCB2.0 sensor [3]): void of any concentration-dependent effects
IC50 (GRABeCB2.0 sensor [3]; read-out: IC50 as weak antagonists (normalized curve)): 0.567 µM
